From patent US20230312577A1, “DUAL KINASE-BROMODOMAIN INHIBITORS” (MONASH UNIVERSITY, priority 2020, published 2023) come the findings set out here.

One test has as its system OPM2 cells. Description: Cell proliferation assay (ViaLight, cellular ATP). The settings on record: read-out: Cell Proliferation Assay GI50, 5 days, 5 μM to 1 nM. As for the experimental part: OPM2 cells (1×10^3) were plated in a 96 well plate. Test compounds were added to cells at final concentrations ranging from 5 μM to 1 nM. They were incubated for 5 days before they were analysed using ViaLight luminescence-based proliferation assays which detect cellular ATP, as per the manufacturer's instructions. All samples were prepared in technical triplicates. Data analysis was performed in GraphPad Prism version 7.00 for Mac OS X, (GraphPad Software, San Diego California USA) in order to calculate the GI50.

Another test addresses PI3K. Description: PI3K enzyme activity assay (luminescence, ATP consumption, Kinase-Glo). To be noted: read-out: PI3K Enzyme Activity Assay IC50; 10 μM ATP, 180 μM phosphatidyl inositol, 60 min. As for the experimental part: PI3K activity was determined using a luminescence assay measuring ATP consumption as described previously (J.-A. Pinson, Z. Zheng, M. S. Miller, D. K. Chalmers, I. G. Jennings, P. E. Thompson, L-Aminoacyl-triazine derivatives are isoform-selective PI3Kβ inhibitors that target nonconserved Asp862 of PI3Kb, ACS Med. Chem. Lett. 4 (2013) 206-210). PI3K enzyme activity was determined in 25 μl of 20 mM HEPES pH 7.5, 5 mM MgCl2 with 180 μM phosphatidyl inositol and 10 μMATP. After a 60 min incubation at room temperature the reaction was stopped by the addition of Kinase-Glo (Promega) followed by a further 15 min incubation. Luminescence was then read using a Fluostar plate reader (BMGLabtech).
Inhibitors were diluted in 20% (v/v) DMSO at the indicated concentrations in order to generate a concentration versus inhibition of enzyme activity curve which was then analysed using GraphPad Prism version 8.00 for Windows, (GraphPad Software, San Diego California USA) in order to calculate the IC50. Standard deviations for the calculated IC50's are within 25% of the mean.
(In Kinase-Glo more light means more ATP remaining.)

In test [1] the target is GST-BRD4 (binding domain 1, amino acids 44-168) (Homo sapiens, UniProt O60885). Description: Bromodomain binding assay (FRET). The settings on record: read-out: Bromodomain Binding Assay (BRD4) IC50; BRD4 binding domain 1, tetracetylated histone 4 peptide. The procedure: Inhibition of bromodomain binding was measured using a FRET (fluorescence resonance energy transfer) based assay. […] In the presence of the two detection reagents, streptavidin D2 and anti-GST-Eu (CisBio) binding trig-gers a FRET signal detected by fluorescence at 665 nm as measured using a Pherastar reader (BMG Labtech). Data was analysed using GraphPad Prism version 8.00 for Windows, (GraphPad Software, San Diego California USA) in order to calculate the IC50. Standard deviations for the calculated IC50's are within 25% of the mean.

As usually defined, the IC50 is the concentration at which inhibition is half-maximal. Turning to `CC(=O)N1c2ccc(-c3ccc(CNC(=O)CNC(=O)c4cn5cc(-c6cnc(N)nc6)nc(N6CCOCC6)c5n4)s3)cc2CCC1C` (stereo not drawn), the GI50 in the test on OPM2 cells fell in the range of 100 to 500 nM. Besides, the IC50 on PI3K is less than 100 nM; in test [1], 100 to 500 nM.
